Molecules are shown by their SMILES.

The chains behind the UniProt entries cited, without tags or fusion partners.
UniProt P81908, whole entry: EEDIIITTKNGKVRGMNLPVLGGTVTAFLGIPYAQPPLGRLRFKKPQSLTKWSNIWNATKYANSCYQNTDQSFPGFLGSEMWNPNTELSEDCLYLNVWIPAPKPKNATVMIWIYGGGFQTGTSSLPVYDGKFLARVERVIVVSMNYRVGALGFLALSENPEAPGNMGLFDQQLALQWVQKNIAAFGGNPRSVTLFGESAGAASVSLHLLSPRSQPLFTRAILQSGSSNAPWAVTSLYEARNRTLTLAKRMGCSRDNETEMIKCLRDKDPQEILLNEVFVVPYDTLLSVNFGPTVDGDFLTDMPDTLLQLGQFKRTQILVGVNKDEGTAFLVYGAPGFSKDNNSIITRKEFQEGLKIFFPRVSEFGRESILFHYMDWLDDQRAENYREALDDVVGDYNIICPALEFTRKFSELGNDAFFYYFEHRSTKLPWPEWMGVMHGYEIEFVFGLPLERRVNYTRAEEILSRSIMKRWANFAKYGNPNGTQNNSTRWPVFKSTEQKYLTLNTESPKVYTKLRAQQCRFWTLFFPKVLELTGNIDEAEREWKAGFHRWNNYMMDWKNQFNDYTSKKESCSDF

For orientation: IC50 means the concentration that gives 50% inhibition.

In this assay the target is Cholinesterase (Equus caballus, UniProt P81908). In words: Inhibition of equine serum BChE preincubated for 15 mins followed by addition of S-butyrylthiocholine chloride as substrate measured after 30 mins by Ellman's microplate assay. (In general: DTNB colorimetry detects thiols as they appear.)

Regarding `CNC(=O)Oc1ccc2c(c1)[C@]1(C)CCN(C)[C@@H]1N2C`, the IC50 was found to be 580 nM.
